GIV Gai3 FP = inhibitors of GIV peptide binding to Galpha-i3, primary screen, biochemical, fluorescence polarization, FITC-GIV GBA peptide, rat Galphai3. Guanine nucleotide-binding protein G(i) subunit alpha-3 (Rattus norvegicus), P08753. 90 min; stronger effect = lower value; scaled: aluminum fluoride 0%, vehicle 100%. percent of control (FP), % (test concentration not listed). hit rate 0.42% among 210,000. AID 1224905, 2016;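 active = replicate mean at 85% of control or lower, very high polarization wells dropped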;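 note: wells of about 15 µL received 100 nL stock; the first replicate is given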
HCMV NEC inh = inhibitors of HCMV UL50-UL53 interaction, biochemical, HTRF; HCMV UL50-UL53 nuclear egress complex (human cytomegalovirus); normalized percent inhibition; inhibition, % (test concentration not listed); actives 0.15% (n = 190,000); AID 1918969, 2023; in the data active = inhibition above about 27%, passing the limit was not always enough
Each line names hits and unclear results; the compound was inactive in the other large screens. Shown is part of a subset that was picked to be rich in hits.

Amino acid sequences for entries named in this document (tags omitted).
Guanine nucleotide-binding protein G(i) subunit alpha-3 (Rattus norvegicus), P08753, UniProt P08753, whole entry, looked up: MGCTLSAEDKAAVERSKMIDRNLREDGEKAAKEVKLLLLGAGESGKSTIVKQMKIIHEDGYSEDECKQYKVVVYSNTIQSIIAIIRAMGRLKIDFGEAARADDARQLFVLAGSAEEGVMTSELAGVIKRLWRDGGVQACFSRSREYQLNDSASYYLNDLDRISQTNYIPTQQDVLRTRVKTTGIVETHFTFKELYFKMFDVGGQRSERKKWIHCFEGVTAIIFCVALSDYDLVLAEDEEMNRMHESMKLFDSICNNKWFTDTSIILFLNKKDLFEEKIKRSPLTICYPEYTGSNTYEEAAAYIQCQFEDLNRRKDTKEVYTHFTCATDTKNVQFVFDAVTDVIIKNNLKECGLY

CC(NC(=O)/C=C/c1ccccc1Cl)c1ccccc1 (configuration not stated)	none (no result: HCMV NEC inh)
Cc1ccc2c(=O)c(C(=O)c3ccccc3)cn(CC(=O)Nc3ccc(C)c(F)c3)c2n1	HCMV NEC inh 72
Cc1ccc2c(=O)c(C(=O)c3ccccc3)cn(CC(=O)Nc3ccccc3)c2n1	none (no result: HCMV NEC inh)
COC(=O)Cn1nnnc1-c1ccc(C)cc1	none
O=c1nc(SCc2ccccc2)c2c(n1C1CCCCC1)CCC2	none
CN(C)c1ccc(/C=C2\C(=O)NC(=O)N(C3CCCC3)C2=O)o1	GIV Gai3 FP -42 (no result: HCMV NEC inh)
O=C1NC(=O)N(C2CCCCC2)C(=O)/C1=C\c1ccc(-c2ccc(C(=O)O)cc2)o1	none
CC(Sc1nc2ccccc2c(=O)[nH]1)C(=O)Nc1ccc(N2CCOCC2)cc1 (configuration not stated)	none (no result: GIV Gai3 FP)
COc1ccc(Cl)cc1-n1cnc2sc(C)c(C)c2c1=O	none (no result: GIV Gai3 FP)
Cc1ccc2nc3sc(C(=O)O)c(N)c3cc2c1	none
Nc1c(C(=O)N2CCOCC2)sc2nc3c(cc12)CCCC3	none
COc1ccc2nc3sc(C(=O)N4CCCC4)c(N)c3cc2c1	GIV Gai3 FP -62
Cc1cc(C)c2nc3sc(C(=O)N4CCOCC4)c(N)c3cc2c1	GIV Gai3 FP -49
N#CCC(=O)N1CCNCC1	none (no result: GIV Gai3 FP)
O=C(c1ccc(-c2ccccc2Cl)o1)N1CCOCC1	none (no result: GIV Gai3 FP)
O=C(CSc1ncnc2c1oc1ccccc12)NCc1ccccc1	none (no result: GIV Gai3 FP)
O=C(CSc1ncnc2c1oc1ccccc12)NC1CCCCC1	HCMV NEC inh 62 (no result: GIV Gai3 FP)
N#C/C(=C\c1ccc(-c2ccc(F)cc2F)o1)c1nc2ccccc2[nH]1	GIV Gai3 FP -6.1
N#C/C(=C\c1ccc(-c2ccccc2C(=O)O)o1)c1nc2ccccc2[nH]1	none
CCCc1cc(C2CCCN2C(=O)Cn2nc(C(F)(F)F)c3c2CCCC3)no1 (configuration not stated)	none (no result: HCMV NEC inh)
CCN1C(=O)CSc2ccc(C(=O)NC(C)C)cc21	none
CC(C)OC1(O)C(=O)c2ccccc2C(=O)C1(O)OC(C)C (configuration not stated)	HCMV NEC inh 99 (no result: GIV Gai3 FP)
CC(C)OC1(c2ccccc2)OC(=O)c2ccccc21 (configuration not stated)	none (no result: HCMV NEC inh)
COc1ccc(C(=S)NCC2CCCO2)cc1 (configuration not stated)	none
CCn1c(O)c(C=Nc2cccc(O)c2)sc1=S	GIV Gai3 FP 66
CCn1c(O)c(/C=N/c2nc3ccccc3[nH]2)sc1=S	none (no result: GIV Gai3 FP)
O=C(Nc1ccc(N2CCOCC2)cc1)c1ccc2c(=O)[nH][nH]c(=O)c2c1	none (no result: GIV Gai3 FP)
CC1Cc2cccc3c(O)cc(=O)n1c23 (configuration not stated)	none (no result: GIV Gai3 FP)
O=C1O[C@@H]2C[C@H]3C[C@@H]2[C@@H]1[C@H]3C(=O)N1CCN(c2ccccc2)CC1	none
CCOC(=O)C1=C(C)N=c2s/c(=C/c3cc([N+](=O)[O-])ccc3N3CCN(C)CC3)c(=O)n2C1c1ccc(F)cc1 (configuration not stated)	none (no result: HCMV NEC inh)
CCOC(=O)C1=C(C)N=c2s/c(=C/c3cc(Br)cc([N+](=O)[O-])c3O)c(=O)n2C1c1ccccc1 (configuration not stated)	GIV Gai3 FP 26 (no result: HCMV NEC inh)
CCOC(=O)C1=C(C)N=c2s/c(=C/c3cccc([N+](=O)[O-])c3O)c(=O)n2C1c1cc(OC)c(OC)c(OC)c1 (configuration not stated)	none (no result: HCMV NEC inh)
CCOC(=O)C1=C(C)N=c2s/c(=C/c3cc([N+](=O)[O-])ccc3O)c(=O)n2C1c1ccc(SC)cc1 (configuration not stated)	GIV Gai3 FP 26 (no result: HCMV NEC inh)
Cc1ccc(C(O)CN=Cc2c(O)ccc3ccccc23)cn1 (configuration not stated)	HCMV NEC inh 62 (no result: GIV Gai3 FP)
Cc1ncc(CO)c(/C=N/N=C/c2c(O)ccc3ccccc23)c1O	none
O=C(Nc1ccc(Cn2cnc(-c3nc(-c4cccc(F)c4)no3)c2)cc1)c1ccccc1F	none
CSc1nc(NC(C)C)c(C#N)c(-c2ccccc2)n1	HCMV NEC inh 29
CSc1nc(NCc2ccccc2)c(C#N)c(-c2ccccc2)n1	none
CCOC(=O)c1cc(S(=O)(=O)N(C)CC(=O)N2CCOCC2)cn1C	none
Cc1ccc(C(=O)O)cc1-n1c(C)ccc1-c1ccccc1	none
Cc1cc(C(=O)O)ccc1-n1c(C)ccc1C	HCMV NEC inh 34
O=C(CC1CCCC1)N1CC(OCc2ccc(Cl)cc2)C1	none
COc1cccc2c1C(=O)c1c(O)c3c(c(O)c1C2=O)C[C@@](O)(C(=O)CO)CC3OC1CC(N)C(O)C(C)O1 (some centres not stated)	none (no result: GIV Gai3 FP)
COc1cccc2c1C(=O)c1c(O)c3c(c(O)c1C2=O)C[C@@](O)(C(=O)CO)C[C@@H]3O[C@H]1C[C@H](N)[C@H](O)[C@H](C)O1	GIV Gai3 FP -14
COc1ccc(CNS(=O)(=O)c2ccc3[nH]cc(C(=O)O)c(=O)c3c2)c(OC)c1	none
NC(Cn1ccnc1)c1ccccc1 (configuration not stated)	none (no result: GIV Gai3 FP)
COc1ccc(N=Cc2ccc(N(C)CCC#N)cc2)cc1	none
CN(CCC#N)c1ccc(/C=C2\CC/C(=C\c3ccc(N(C)CCC#N)cc3)C2=O)cc1	GIV Gai3 FP -41
CC(C)/C=C1\CC/C(=C\c2ccc(Cl)cc2)C1=O	none (no result: HCMV NEC inh)
CCN(CC)c1ccc(/C=C2\CC/C(=C\C(C)C)C2=O)cc1	GIV Gai3 FP -88
NC(=O)C1CCN(C(=O)c2cccc(-n3nnc4cccnc43)c2)CC1	none
CC1CCCN(C(=O)C2CCN(c3ncnc4c3oc3ccccc34)CC2)C1 (configuration not stated)	none (no result: HCMV NEC inh)
CN1CCN(Cc2c(O)ccc3cc(-c4ccccc4)c(=O)oc23)CC1	none (no result: HCMV NEC inh)
CCC1CCCCN1Cc1c(O)ccc2cc(-c3nc4ccccc4[nH]3)c(=O)oc12 (configuration not stated)	GIV Gai3 FP -42 (no result: HCMV NEC inh)
CN1CCN(Cc2c(O)ccc3cc(-c4nc5ccccc5[nH]4)c(=O)oc23)CC1	GIV Gai3 FP -75
CC1CCCN(Cc2c(O)ccc3cc(-c4nc5ccccc5[nH]4)c(=O)oc23)C1 (configuration not stated)	GIV Gai3 FP -33
CCOc1cccc2cc(-c3nc4ccccc4[nH]3)c(=O)oc12	none (no result: GIV Gai3 FP)
CC1CCCN(C/C(O)=C(\C#N)c2nc3ccccc3[nH]2)C1 (configuration not stated)	none
CC1=Nc2ccccc2C(c2ccccc2)(c2ccccc2)O1	none (no result: HCMV NEC inh)
O=C(CCNS(=O)(=O)c1ccc2c(c1)OCCO2)Nc1nccs1	none (no result: GIV Gai3 FP)
CC(C)(C)C1CCc2c(sc3nc(-c4cc5ccccc5oc4=O)[nH]c(=O)c23)C1 (configuration not stated)	none
CCN(CC)c1ccc2cc(-c3nc4sc5c(c4c(=O)[nH]3)CCC(C(C)(C)C)C5)c(=O)oc2c1 (configuration not stated)	GIV Gai3 FP -66
CN1CCN(c2ccc3cc(Cl)ccc3n2)CC1=O	none (no result: GIV Gai3 FP)
CN(C)CCCNCc1cccn1C	HCMV NEC inh 33
CN(C)CCCNCc1ccco1	none
CC1CCN(c2ccc(C#N)cc2)CC1	none (no result: GIV Gai3 FP)
NNC(=O)c1oc2nc(-c3ccccc3)cc(-c3ccccc3)c2c1N	none
COc1cccc(/C=N/NC(=O)c2oc3nc(-c4ccccc4)cc(-c4ccco4)c3c2N)c1	GIV Gai3 FP -54
CCOC(=O)C1=C(O)/C(=C/c2ccc(OCC)cc2)SC1=Nc1ccccc1	none (no result: HCMV NEC inh)
CCOC(=O)C1=C(O)/C(=C/c2ccc(N3CCOCC3)o2)SC1=Nc1ccc(OCC)cc1	GIV Gai3 FP -15
CC(C)(C)C(=O)Nc1cccc(C(F)(F)F)c1C(=O)O	none

Screening results from PubChem.
